# Measured values: patent US10226514B2 (dated 2019)
# Tested on: JNK
# Test: JNK activation in cells (c-Jun phosphorylation)
# Assay type: cell-based
# Settings: inhibitor 10 μM 30 minutes, then anisomycin 25 ng/ml two hours
structure (smiles),measurement,value
CCOc1nc(NC(=O)Cc2cc(OC)ccc2OC)cc(N)c1C#N [JNK inhibitor VIII],anisomycin-induced JNK activation (c-Jun phosphorylation),completely abolishing
